# Assay results published in PubChem BioAssay AID1662 (Broad Institute, 2009).
# Only a part is listed here, and it is no random draw. Some salts and complexes are drawn in separate pieces, as the source files them; their charges need not balance. Activity calls are given as the source filed them.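 How the source made its calls: active means mean replicate score, as percent of positive control median, at least 50; inconclusive means mean below 50 but one replicate at or above 50; inactive means mean and every replicate below 50.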
# Assay: kanamycin survival loss of SKKanGAS strain – BacTiter-Glo luminescence, streptokinase expression inhibitor project, primary screen (AID 1662);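 further: strain carries kanamycin resistance gene driven by streptokinase promoter and grows in 40 µg/ml kanamycin; loss of luminescence reflects streptokinase promoter inhibition or plain growth inhibition; 0% = median of DMSO wells and 100% = positive control at its reference dose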
# Conditions: S. pyogenes SKKanGAS, kanamycin growth, 6 h, at 7.5 µM, stronger effect = higher value
row,SMILES,inhibition
1,COc1ccccc1OP(C)(=O)Nc1ccc(C)cc1C (centres undefined),inactive: 3.01%
2,CP(=O)(Nc1ccccn1)Oc1ccccc1 (centres undefined),inactive: 2.41%
3,CCc1ccc(OP(C)(=O)O)cc1,inactive: 0.756%
4,O=[N+]([O-])c1cc([N+](=O)[O-])c(Nc2ccccn2)c([N+](=O)[O-])c1,active: 70.2%
5,Cc1c(NP(C)(=O)Oc2ccc(C(C)C)cc2)c(=O)n(-c2ccccc2)n1C (centres undefined),inactive: -4.4%
6,COc1ccc(OP(C)(=O)Nc2ccccn2)cc1 (centres undefined),inactive: 4.49%
7,CN(C)CCOC(=O)C(O)(c1ccccc1)C1CCCC1 (centres undefined),inactive: -0.976%
8,COc1ccccc1OP(C)(=O)Nc1ccc(Br)cc1 (centres undefined),inactive: -3.33%
9,CP(=O)(OCCOc1ccccc1)OCCOc1ccccc1,inactive: 3.43%
10,CP(=O)(Nc1ccc(Cl)cc1Cl)Oc1ccccc1 (centres undefined),inactive: 0.553%
11,Cc1nc2ccc3ccccc3c2o1.O=[N+]([O-])c1cc([N+](=O)[O-])c(O)c([N+](=O)[O-])c1,inactive: 16.2%
12,COc1ccccc1OP(C)(=O)Nc1ccc(C)c(C)c1 (centres undefined),inactive: -1.82%
13,COc1ccc(OP(C)(=O)Nc2ccccc2Br)cc1 (centres undefined),inactive: -8.41%
14,Cc1cc(C)cc(OP(C)(=O)Nc2cccc(C(F)(F)F)c2)c1 (centres undefined),inactive: -2.53%
15,CCOC(=O)c1ccc(NP(C)(=O)Oc2ccc(Cl)cc2)cc1 (centres undefined),inactive: 8.79%
16,CP(=O)(OC12CC3CC(CC(C3)C1)C2)OC12CC3CC(CC(C3)C1)C2,inactive: 0.576%
17,Nc1ccc2c(ccc3cccnc32)n1.O=[N+]([O-])c1cc([N+](=O)[O-])c(O)c([N+](=O)[O-])c1,inactive: -2.98%
18,CN(C)C(=O)c1c([N+](=O)[O-])cc([N+](=O)[O-])cc1[N+](=O)[O-],inactive: -7.48%
19,CC(C)(C)c1ccc(OP(C)(=O)O)cc1,inactive: 3.05%
20,COc1ccccc1OP(C)(=O)Nc1ccccc1Br (centres undefined),inactive: 13.9%
21,CP(=O)(Nc1ccc(Cl)cc1)Oc1ccc(F)cc1 (centres undefined),inactive: -8.1%
22,O=C(OCCCN1CCCC1)C(O)(c1ccccc1)C1CCCCC1 (centres undefined),inactive: -3.13%

row,SMILES,inhibition
1,COc1ccccc1OP(C)(=O)Nc1c(C)n(C)n(-c2ccccc2)c1=O (centres undefined),inactive: -2.53%
2,CCc1ccc(OP(C)(=O)Nc2cccnc2)cc1 (centres undefined),inactive: 0.633%
3,CP(=O)(Oc1ccccc1)N1CCOC1=O (centres undefined),inactive: -4.66%
4,COc1ccc(OP(C)(=O)Nc2ccc(Br)cc2)cc1 (centres undefined),inactive: -4.34%
5,CCN(CC)CC(O)COC(=O)C(O)(c1ccccc1)C1CCCCC1 (centres undefined),inactive: -4.85%
6,Cc1ccccc1NP(C)(=O)Nc1ccccc1C,inactive: 1.67%
7,CP(=O)(Nc1ccc2c(c1)OCCO2)Oc1ccccc1 (centres undefined),inactive: 4.89%
8,CCOP(C)(=S)SCC(=O)NC(C)(CC)C(=O)O (centres undefined),inactive: -1.43%
9,CP(=O)(Nc1ccc(SC(F)(F)F)cc1)Oc1ccc(F)cc1 (centres undefined),inactive: 3.72%
10,O=[N+]([O-])c1ccc(OP2(=O)COCCO2)cc1 (centres undefined),inactive: -0.804%
11,Cc1cc(-c2cccc3ccccc23)c(C)cn1.O=[N+]([O-])c1cc([N+](=O)[O-])c(O)c([N+](=O)[O-])c1,inactive: 7.95%
12,O=[N+]([O-])c1cc([N+](=O)[O-])c(NCC2CCS(=O)(=O)C2)c([N+](=O)[O-])c1 (centres undefined),inactive: 6.11%
13,CN(C)CCOC(=O)C(O)(c1ccccc1)C1CCCCC1 (centres undefined),inactive: -5.32%
14,COc1ccc(NP(C)(=O)Oc2ccccc2OC)cc1 (centres undefined),inactive: -4.88%
15,COc1ccc(OP(C)(=O)Nc2cccc(Br)c2)cc1 (centres undefined),inactive: 5.31%
16,CP(=O)(Nc1ccccc1)Oc1ccc(F)cc1 (centres undefined),inactive: -0.234%
17,O=[N+]([O-])c1cc([N+](=O)[O-])c(OC2CCCCC2O)c([N+](=O)[O-])c1 (centres undefined),inactive: -3.07%
18,CCCCCOc1ccc(NP(C)(=O)Oc2ccc(Cl)cc2Cl)cc1 (centres undefined),inactive: 12.7%
19,CCN(CC)CCCOC(=O)C(O)(c1ccccc1)C1CCCCC1 (centres undefined),inactive: -2.61%
20,CCOC(=O)c1ccc(NP(C)(=O)Oc2ccc(F)cc2)cc1 (centres undefined),inactive: -2.58%
21,COc1ccc(OP(C)(=O)Nc2ccc(SC(F)(F)F)cc2)cc1 (centres undefined),inactive: -2.99%
22,COc1ccc2c(c1O)-c1c(O)c(OC)cc3c1[C@H](C2)[N+](C)(C)CC3.O=[N+]([O-])c1cc([N+](=O)[O-])c([O-])c([N+](=O)[O-])c1[O-],inactive: -0.622%
